Data: patent US6555523B1, “Use of cirsiliol and derivatives to treat infections” (priority 1999, dated 2003)

Test system: MDBK cells
Experiment: Cytotoxicity in MDBK cultures (BVDV test)
Conditions: table footnote, unit from the table's concentration head

**Q.** For `NC(=O)c1ncn([C@@H]2O[C@H](CO)[C@@H](O)[C@H]2O)n1` [Ribavirin, ribavirin, reference compound], which “MTC (minimum cytotoxic drug concentration)” value is on record?
**A.** The value was > 10 µg/mL.
